High-throughput results deposited in PubChem BioAssay by National Center for Advancing Translational Sciences (NCATS).
TDP1 cell noCPT: qHTS for Inhibitors of human tyrosyl-DNA phosphodiesterase 1 (TDP1): qHTS in cells in absence of CPT; DT40 Tdp1-/- hTDP1 cells, no CPT, ATP luminescence, 48 h; Potency, µM (doses to about 46.2 µM), without a hit: top-dose activity change, negative = growth inhibition, actives largely listed as inhibitors; 420,000 tested, 15% active; AID 686978, 2013; also: potency is read from the fitted curve at half-maximal effect; % is scaled to controls: 0 for no effect and ±100 for the full control effect; nearly all actives have a fitted effect of over 55% in size
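Readout: luminescence from CellTiter-Glo after 30 min in the dark at RT. Cells: DT40 Tdp1-/- with stable hTDP1, 400/well. Exposure: compounds alone, ≥48 hr, 37 °C.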
uPA generation: cell surface uPA generation inhibition; cell surface uPA generation assay, qHTS; Potency, µM (highest dose often 38.3 µM), inactives show at the top dose activity change, negative = inhibition, usual class: inhibitors; 330,000 tested, 0.31% active; AID 540303; active = well fitted inhibition curve with a large enough effect; inconclusive = small, poorly fitted or top-dose-only effect; inactive = no such curve, though single readings can be large or run the other way; tested in mouse RAW 264.7 cells; also: potency is read from the fitted curve at half-maximal effect; % is scaled to controls: 0 for no effect and ±100 for the full control effect; nearly all actives have a fitted effect of over 55% in size
miR-21 reporter: raises the signal of a miR-21 reporter; HeLa miR-21 FLuc reporter, luciferase, 48 h; Potency, µM (top dose mostly 38.3 µM), for inactives: at the highest dose reporter change, positive = more light; AID 2288; 340,000 tested, under 10 active; active = well fitted rising curve with a large enough effect; inconclusive = small, poorly fitted or top-dose-only effect; inactive = no such curve, though single readings can be large or run the other way;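 note: % of control where 0% means no effect; miR-21 action dims this reporter so a rising signal means less miR-21 action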
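Compounds were titrated across several concentrations (up to approximately 40 uM) and incubated 48 hours with HeLa miR-21-FLuc reporter cells (miR-21 target sequence downstream of FLuc, endogenous miR-21). Readout was firefly luciferase luminescence after lytic detection reagent.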
TDP1 inh: blocks human tyrosyl-DNA phosphodiesterase 1 | recombinant TDP1, AlphaScreen DNA substrate cleavage | Potency, µM (titrated, usually from 130 µM), inactives show at the highest dose activity change, negative = inhibition, most hits filed as inhibitors | 350,000 tested, 0.28% active; also: potency is read from the fitted curve at half-maximal effect; % is scaled to controls: 0 for no effect and ±100 for the full control effect; nearly all actives have a fitted effect of over 40% in size
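Recombinant E. coli-expressed Tdp1 (1 nM) preincubated with compound 15 min at RT, then 5'-biotin/3'-phosphotyrosine-FITC DNA substrate (15 nM) added for 5 min. AlphaScreen beads (10 ug/ml) added, 10 min RT; tyrosine-FITC cleavage read as signal loss.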
DT40 TDP1 CPT: DT40-hTDP1 cell growth loss with CPT. chicken DT40 Tdp1-/-;hTDP1 cells + 20 nM CPT, ATP luminescence, 48 h. Potency, µM (highest dose often 46.2 µM), without a hit: at the top dose activity change, negative = growth inhibition, most hits filed as inhibitors. 420,000 tested, 12% active. AID 686979; also: potency is read from the fitted curve at half-maximal effect; % is scaled to controls: 0 for no effect and ±100 for the full control effect; nearly all actives have a fitted effect of over 55% in size
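Cell growth measured by CellTiter-Glo luminescence after a minimum 48 h, 37 C compound exposure with 20 nM CPT in Tdp1-knockout DT40 cells stably expressing hTDP1, seeded 400/well; qHTS titration format.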
Starred values were filed as active, the others as inactive; u = inconclusive; x = no result; [ ] = another dose, or the depositor's remark. Hits are enriched below; roughly 16% of the tested compounds scored in any of these assays. Unless noted, calls follow the shape of the dose curve; as a rule, active = well fitted curve in the direction sought with a large enough effect; inconclusive = small, poorly fitted or top-dose-only effect, or another doubt; inactive = no such curve, though single readings can be large; an effect the other way counts as inactive or inconclusive.

(1) CCCCCC(=O)N1C[C@H](n2cc(COC(=O)c3ccccc3)nn2)[C@@H](O)C[C@@H]1c1ccccc1
(2) CCCCCC(=O)N1C[C@@H](O)[C@H](n2cc(COC(=O)c3ccccc3)nn2)C[C@@H]1c1ccc(C)cc1
(3) CCCCCC(=O)N1C[C@H](O)[C@@H](n2cc(COC(=O)c3ccccc3)nn2)C[C@@H]1c1ccc(Cl)cc1
(4) Cc1noc(C)c1-c1cc(N2CCNCC2)ncn1
(5) NC(=O)C1CCN(C(=O)c2ccc(NS(=O)(=O)c3ccc(Br)s3)cc2)CC1
(6) CCOC(=O)C1(C)CCN1C(=O)c1ccoc1 (centres undefined)
(7) CCOC(=O)C1(C)CCN1C(=O)c1ccc(C(C)(C)C)cc1 (centres undefined)
(8) CCOC(=O)C1(C)CCN1C(=O)c1cccc(C(F)(F)F)c1 (centres undefined)

Compound,1,2,3,4,5,6,7,8
TDP1 cell noCPT,3.8%,4.6%,25.9µM*,-3.2%,4.8%,11.9%,20.6µM*,-25.8%
uPA generation,x,x,x,x,5.4%,x,x,x
miR-21 reporter,x,x,x,x,x,x,x,x
TDP1 inh,x,x,x,x,-1.7%,x,x,x
DT40 TDP1 CPT,3.6%,-3.5%,u,-16.3%,3.7%,-18.0%,16.4µM*,-26.1%

(9) CCOC(=O)C1(C)CCN1C(=O)c1ccc(SC(F)(F)F)cc1 (centres undefined)
(10) Cc1ccc(NC(=O)CN(C)C(=O)c2cc(S(=O)(=O)N(C)C)ccc2N2CCCC2)cc1
(11) O=c1cc(C(F)(F)F)[nH]c2c(C(F)(F)F)cccc12
(12) O=c1cc(C(F)(F)F)[nH]c2ccc(OC(F)(F)F)cc12
(13) CCOc1ccc2[nH]c(C)cc(=O)c2c1
(14) N#C/C(=C\C=C\c1ccccc1)C(=O)NCc1ccco1
(15) O=C(NCc1ccco1)/C(=C/C=C\c1ccccc1)NC(=O)c1ccc(Br)o1
(16) Cc1c(C(=O)NCc2ccc(Cl)cc2)sc2nc3n(c(=O)c12)CCC3

Compound,9,10,11,12,13,14,15,16
TDP1 cell noCPT,u,-24.8%,16.4µM*,13µM*,-26.1%,u,u,u
uPA generation,x,0.0%,u,-17.2%,9.4%,-7.4%,-6.2%,x
miR-21 reporter,x,x,29.1%,u,2.5%,5.0%,u,-12.2%
TDP1 inh,x,-0.1%,-1.3%,0.0%,5.4%,7.6%,-5.8%,5.2%
DT40 TDP1 CPT,18.4µM*,u,18.4µM*,20.6µM*,u,-8.4%,16.4µM*,u

(17) Cc1cc(=O)n(-c2ccc3ccccc3n2)[nH]1
(18) CC1=CCC2C(=O)N(c3ccc4ccccc4n3)C(=O)C2C1 (centres undefined)
(19) C=CCN1C(C(=O)c2ccccc2)=C(OC(=O)COc2ccccc2)c2ccccc2S1(=O)=O
(20) CCCCC(=O)OC1=C(C(=O)c2ccccc2)N(C)S(=O)(=O)c2ccccc21
(21) CN1C(C(=O)c2ccccc2)=C(NC(=O)c2ccccc2Br)c2ccccc2S1(=O)=O
(22) CCCN1C(C(=O)c2ccccc2)=C(OC(=O)COc2ccccc2)c2ccccc2S1(=O)=O
(23) CCCN1C(C(=O)c2ccccc2)=C(OC(=O)COc2ccc(C)cc2)c2ccccc2S1(=O)=O
(24) Cc1ccccc1NC1=C(C(=O)c2ccccc2)N(C)S(=O)(=O)c2ccccc21

Compound,17,18,19,20,21,22,23,24
TDP1 cell noCPT,20.6µM*,-20.4%,u,23.1µM*,6.51µM*,4.11µM*,5.17µM*,u
uPA generation,-7.9%,2.4%,-6.1%,x,x,x,x,-0.5%
miR-21 reporter,-20.5%,-10.1%,u,1.4%,0.1%,u,u,-1.4%
TDP1 inh,9.8%,5.6%,8.1%,7.0%,6.1%,9.8%,6.1%,5.9%
DT40 TDP1 CPT,18.4µM*,1.4%,u,u,11.6µM*,4.11µM*,4.11µM*,-29.3%

(25) Fc1cccc(Cl)c1CSc1ccc2nnc(-c3ccccn3)n2n1
(26) CCCOC(=O)C1=C(C)NC(=O)NC1c1ccc(Br)s1 (centres undefined)
(27) Cc1cc(N2CCCC2=O)ccc1S(=O)(=O)N1CCOCC1
(28) CCCN1C(C(=O)c2ccccc2)=C(OC(=O)C(C)(C)C)c2ccccc2S1(=O)=O
(29) CC(=O)C1=C(OC(=O)C(C)C)c2ccccc2S(=O)(=O)N1Cc1ccccc1
(30) CCN1C(C(=O)c2ccccc2)=C(OC(=O)COc2ccc(OC)cc2)c2ccccc2S1(=O)=O
(31) CC(=O)c1ccc(OC(=O)COc2ccccc2)cc1
(32) CCN1C(C(=O)c2ccccc2)=C(OC(=O)COc2ccc(C)cc2)c2ccccc2S1(=O)=O

Compound,25,26,27,28,29,30,31,32
TDP1 cell noCPT,u,u,u,5.17µM*,u,4.61µM*,22.0%,16.4µM*
uPA generation,1.9%,-2.1%,-3.7%,x,x,x,3.1%,x
miR-21 reporter,-20.7%,-3.0%,2.6%,u,u,u,-0.5%,u
TDP1 inh,2.7%,1.2%,0.0%,6.1%,4.7%,-2.5%,x,3.7%
DT40 TDP1 CPT,-14.6%,u,2.5%,4.11µM*,u,5.17µM*,4.2%,u

(33) COc1ccc(-c2onc3ccc(C(=O)/C=C/N(C)C)cc23)cc1
(34) Cc1ccccc1-c1noc(N)c1C#N
(35) Cc1ccc(NC(=O)CC(C)S(=O)(=O)c2ccc3c(c2)NC(=O)CO3)cc1C (centres undefined)
(36) Cc1ccc(NC(=O)CC(C)S(=O)(=O)c2ccc3c(c2)NC(=O)CO3)cc1Cl (centres undefined)
(37) Cc1ccc(NS(=O)(=O)c2ccc3c(c2)NC(=O)CO3)cc1Cl
(38) O=C(c1cc(-c2ccc(Br)cc2)nc2ccccc12)N1CCC1
(39) Cc1cccc(-c2cc(C(=O)N3CCCc4ccccc43)c3ccccc3n2)c1
(40) O=C(c1cc(-c2ccccc2)nc2ccccc12)N1CCCc2ccccc21

Compound,33,34,35,36,37,38,39,40
TDP1 cell noCPT,20.6µM*,u,u,20.6µM*,u,u,u,23.1µM*
uPA generation,-1.2%,x,1.2%,x,7.9%,-0.2%,2.1%,1.2%
miR-21 reporter,3.7%,2.0%,5.7%,10.8%,4.6%,x,-4.7%,-6.9%
TDP1 inh,x,1.1%,4.6%,2.5%,4.8%,-7.4%[0.505 µM],2.7%,4.7%
DT40 TDP1 CPT,13µM*,25.9µM*,u,-7.3%,18.4µM*,u,23.1µM*,u

(41) O=C(c1ccccc1)C1CCN(C(=O)c2ccc(Cl)cc2)CC1
(42) CC1CN(Cc2ccccc2)c2ccccc2NC1=S (centres undefined)
(43) COc1cccc(C(=O)OCC(=O)NC23CC4CC(CC(C4)C2)C3)c1
(44) O=C(COC(=O)c1ccccc1O)NC12CC3CC(CC(C3)C1)C2
(45) O=C(COC(=O)c1cccs1)NC12CC3CC(CC(C3)C1)C2
(46) O=C(COC(=O)/C=C/C(=O)OCC(=O)NC12CC3CC(CC(C3)C1)C2)NC12CC3CC(CC(C3)C1)C2
(47) Cc1cccc(C(=O)OCC(=O)NC23CC4CC(CC(C4)C2)C3)c1O
(48) CC(=O)Oc1cc(C(=O)OCC(=O)NC23CC4CC(CC(C4)C2)C3)cc(OC(C)=O)c1OC(C)=O

Compound,41,42,43,44,45,46,47,48
TDP1 cell noCPT,-28.4%,u,-8.1%,18.4µM*,-2.6%,14.6µM*,18.4µM*,u
uPA generation,-7.8%,5.1%,-0.2%,1.1%,3.3%,-1.0%,1.3%,10µM*
miR-21 reporter,6.7%,4.8%,x,x,-6.5%,-0.5%,x,x
TDP1 inh,x,0.0%,-5.9%,-1.9%,5.1%,-2.7%,-4.7%,x
DT40 TDP1 CPT,u,-29.6%,-10.8%,11.6µM*,16.8%,13µM*,9.2µM*,5.8µM*

Full records, looked up by structure. Values in the order: TDP1 cell noCPT, uPA generation, miR-21 reporter, TDP1 inh, DT40 TDP1 CPT
Record of `Cc1ccc(NC(=O)CC(C)S(=O)(=O)c2ccc3c(c2)NC(=O)CO3)cc1C` (centres undefined) : u, 1.2%, 5.7%, 4.6%, u
Record of `O=C(c1ccccc1)C1CCN(C(=O)c2ccc(Cl)cc2)CC1` : -28.4%, -7.8%, 6.7%, x, u
Record of `O=C(COC(=O)c1ccccc1O)NC12CC3CC(CC(C3)C1)C2` : 18.4µM*, 1.1%, x, -1.9%, 11.6µM*
Record of `Fc1cccc(Cl)c1CSc1ccc2nnc(-c3ccccn3)n2n1` : u, 1.9%, -20.7%, 2.7%, -14.6%
